These results are taken from publication PMC11532403, “First-in-human, phase 1 dose-escalation and dose-expansion study of a RET inhibitor SY-5007 in patients with advanced RET-altered solid tumors” (Signal Transduction and Targeted Therapy, 2024).

One series relates to VEGFR2. Nature of the series: Enzymatic selectivity against VEGFR2. The format is biochemical.
The next series in a line: Caco-2 permeability. The format is in vitro ADME. To be noted: human, read-out: Papp ratio (BL/AP). The text has this: To explore the potential drug-drug interactions (DDIs) induced by SY-5007, we performed a series of in vitro studies.

In the case of `COc1ccc(CN2C3CC2CN(c2ccc(-c4cc(N5CC(C)(O)C5)cn5ncc(C#N)c45)cn2)C3)cn1` [SY-5007, 6-(3-hydroxy-3-methylazetidin-1-yl)-4-(6-(6-((6-methoxypyridin-3-yl)methyl)-3,6-diazabicyclo[3.1.1]heptan-3-yl)pyridin-3-yl)pyrazolo[1,5-a]pyridine-3-carbonitrile], the “Selectivity for VEGFR2” value in the series with VEGFR2 is recorded as “more than 10 fold”. For the same compound, in “Caco-2 permeability”, the efflux ratio is > 2.
